Experimental data reported in patent US9085561B2, “Cyclic urea- or lactam-substituted quinoxaline-type piperidines as ORL-1 modulators” (priority 2012, dated 2015).

Assays:
[1] = target: T1, human opioid receptor-like (ORL-1) (Homo sapiens, UniProt P41146); test: In vitro ORL-1 receptor binding assay ([3H]-nociceptin displacement); conditions: read-out: Ki [Average ± Std Deviation] ORL-1; binding to ORL-1 receptor, procedure of Example 37
[2] = target: T1, human opioid receptor-like (ORL-1); test: In vitro ORL-1 receptor [35S]GTPγS functional assay; assay type: biochemical; conditions: procedure of Example 38; for EC50: read-out: GTPγS ORL-1 EC50 [mean ± SEM]

CC1(C)[C@H]2CC[C@@H](CCN3[C@@H]4CCC[C@H]3C[C@@H](n3c(=O)c(-c5cccc(=O)n5CC(=O)O)nc5ccccc53)C4)[C@@H]1C2
Ki [1]: 4.7 nM | GTPγS ORL-1 Emax [mean ± SEM] [2]: 91 ± 8% | EC50 [2]: 26.7 nM

O=C(O)Cn1c(-c2nc3ccccc3n(C3CC4CCCC(C3)N4C3CC4CCCC(C4)C3)c2=O)n[nH]c1=O (stereo not drawn)
Ki [1]: 6.93 nM | GTPγS ORL-1 Emax [mean ± SEM] [2]: 20.3 ± 1.9% | EC50 [2]: 47.6 nM

O=C(O)c1c[nH]c(=O)c(-c2nc3ccccc3n([C@H]3C[C@H]4CCC[C@@H](C3)N4[C@H]3C[C@@H]4CCC[C@@H](C4)C3)c2=O)c1
Ki [1]: 7.7 nM | GTPγS ORL-1 Emax [mean ± SEM] [2]: 23.7 ± 0.7% | EC50 [2]: 5.2 nM

O=C(O)c1cc(-c2nc3ccccc3n(C3CC4CCCC(C3)N4C3CC4CCCC(C4)C3)c2=O)c[nH]c1=O (stereo not drawn)
Ki [1]: 1.52 nM | GTPγS ORL-1 Emax [mean ± SEM] [2]: 18.0 ± 1.1% | EC50 [2]: 1.08 nM

O=C1NCCN1c1nc2ccccc2n([C@H]2C[C@H]3CCC[C@@H](C2)N3[C@H]2C[C@@H]3CCC[C@@H](C3)C2)c1=O
Ki [1]: 1.67 nM | GTPγS ORL-1 Emax [mean ± SEM] [2]: 15.3 ± 1.2% | EC50 [2]: 0.55 nM

O=c1[nH]c(=O)n(-c2nc3ccccc3n([C@H]3C[C@H]4CCC[C@@H](C3)N4[C@H]3C[C@@H]4CCC[C@@H](C4)C3)c2=O)cc1F
Ki [1]: 5.07 nM | GTPγS ORL-1 Emax [mean ± SEM] [2]: 9.7 ± 0.9% | EC50 [2]: 42.9 nM

O=c1[nH]cccc1-c1nc2ccccc2n([C@H]2C[C@H]3CCC[C@@H](C2)N3[C@@H]2C[C@@H]3CCCC[C@@H](C3)C2)c1=O
Ki [1]: 0.55 nM | GTPγS ORL-1 Emax [mean ± SEM] [2]: 21.7 ± 2.3% | EC50 [2]: 2.96 nM

O=c1[nH]cccc1-c1nc2ccccc2n([C@H]2C[C@H]3CC[C@@H](C2)N3[C@@H]2C[C@@H]3CCCC[C@@H](C3)C2)c1=O
Ki [1]: 1.37 nM | GTPγS ORL-1 Emax [mean ± SEM] [2]: 23.7 ± 0.9% | EC50 [2]: 8 nM

Nc1ccn(-c2nc3ccccc3n([C@H]3C[C@H]4CCC[C@@H](C3)N4[C@H]3C[C@@H]4CCC[C@@H](C4)C3)c2=O)c(=O)n1 [B5a(i), 1-((1R,1′R,3r,3′R,5S,5′S)-[3,9′-bi(9′-azabicyclo[3.3.1]nonan)]-3′-yl)-3-(4-amino-2-oxopyrimidin-1(2H)-yl)quinoxalin-2(1H)-one]
GTPγS ORL-1 Emax [mean ± SEM] [2]: −0.3 ± 0.7%

Nc1nc(=O)n(-c2nc3ccccc3n([C@H]3C[C@H]4CCC[C@@H](C3)N4[C@H]3C[C@@H]4CCC[C@@H](C4)C3)c2=O)cc1F [B7a(i), 1-((1R,1′R,3r,3′R,5S,5′S)-[3,9′-bi(9′-azabicyclo[3.3.1]nonan)]-3′-yl)-3-(4-amino-5-fluoro-2-oxopyrimidin-1(2H)-yl)quinoxalin-2(1H)-one]
Ki [1]: 3 nM | GTPγS ORL-1 Emax [mean ± SEM] [2]: 18 ± 1% | EC50 [2]: 22.5 nM

O=C(O)Cn1c(-c2nc3ccccc3n([C@H]3C[C@H]4CCC[C@@H](C3)N4C3CCCCCCCCC3)c2=O)cccc1=O [BB1c(iii), 2-(6-(4-((1R,3r,5S)-9-cyclodecyl-9-azabicyclo[3.3.1]nonan-3-yl)-3-oxo-3,4-dihydroquinoxalin-2-yl)-2-oxopyridin-1(2H)-yl)acetic acid]
Ki [1]: 7.1 nM

O=C(O)Cn1cccc(-c2nc3ccccc3n([C@H]3C[C@H]4CCC[C@@H](C3)N4C3CCCCCCCCC3)c2=O)c1=O [BB13c(iii), 2-(3-(4-((1R,3r,5S)-9-cyclodecyl-9-azabicyclo[3.3.1]nonan-3-yl)-3-oxo-3,4-dihydroquinoxalin-2-yl)-2-oxopyridin-1(2H)-yl)acetic acid]
GTPγS ORL-1 Emax [mean ± SEM] [2]: 127.3 ± 1.3%

O=c1cnn(-c2nc3ccccc3n([C@H]3C[C@H]4CC[C@@H](C3)N4[C@H]3C[C@@H]4CCC[C@@H](C4)C3)c2=O)c(=O)[nH]1 [Compound A9a, 2-(4-((1R,3R,5S)-8-((1R,3r,5S)-bicyclo[3.3.1]nonan-3-yl)-8-azabicyclo[3.2.1]octan-3-yl)-3-oxo-3,4-dihydroquinoxalin-2-yl)-1,2,4-triazine-3,5(2H,4H)-dione]
GTPγS ORL-1 Emax [mean ± SEM] [2]: 15.3 ± 1.7%

O=c1ccn(-c2nc3ccccc3n([C@H]3C[C@H]4CCC[C@@H](C3)N4[C@H]3C[C@@H]4CCC[C@@H](C4)C3)c2=O)c(=O)[nH]1 [Compound B13a, 1-(4-((1R,1′R,3r,3′R,5S,5′S)-[3,9′-bi(9′-azabicyclo[3.3.1]nonan)]-3′-yl)-3-oxo-3,4-dihydroquinoxalin-2-yl)pyrimidine-2,4(1H,3H)-dione]
GTPγS ORL-1 Emax [mean ± SEM] [2]: 0.3 ± 0.7%

O=c1[nH]c(=O)n(-c2nc3ccccc3n([C@H]3C[C@H]4CCC[C@@H](C3)N4[C@H]3C[C@@H]4CCC[C@@H](C4)C3)c2=O)cc1Br [Compound B16a, 1-(4-((1R,1′R,3r,3R,5S,5′S)-[3,9′-bi(9′-azabicyclo[3.3.1]nonan)]-3′-yl)-3-oxo-3,4-dihydroquinoxalin-2-yl)-5-bromopyrimidine-2,4(1H,3H)-dione]
Ki [1]: 6.37 nM | GTPγS ORL-1 Emax [mean ± SEM] [2]: 14.3 ± 1.7% | EC50 [2]: 11.9 nM

C[C@@H]1C[C@@H]2C[C@H](C1)C[C@@H](N1[C@@H]3CCC[C@H]1C[C@@H](n1c(=O)c(-n4ncc(=O)[nH]c4=O)nc4ccccc41)C3)C2 [Compound B34a, 2-(4-((1R,1′R,3r,3′R,5S,5′S,7S)-7-methyl-[3,9′-bi(9′-azabicyclo[3.3.1]nonan)]-3′-yl)-3-oxo-3,4-dihydroquinoxalin-2-yl)-1,2,4-triazine-3,5(2H,4H)-dione]
Ki [1]: 2.26 nM | GTPγS ORL-1 Emax [mean ± SEM] [2]: 21.3 ± 2.7% | EC50 [2]: 3.9 nM

O=c1cnn(-c2nc3ccccc3n([C@H]3C[C@H]4CCC[C@@H](C3)N4C3CCCCCCC3)c2=O)c(=O)[nH]1 [Compound H9c, 2-(4-((1R,3r,5S)-9-cyclooctyl-9-azabicyclo[3.3.1]nonan-3-yl)-3-oxo-3,4-dihydroquinoxalin-2-yl)-1,2,4-triazine-3,5(2H,4H)-dione]
GTPγS ORL-1 Emax [mean ± SEM] [2]: 41 ± 2%

O=c1cnn(-c2nc3ccccc3n([C@H]3C[C@H]4CCC[C@@H](C3)N4[C@@H]3C[C@@H]4CCCC[C@@H](C4)C3)c2=O)c(=O)[nH]1 [Compound O9b, 2-(4-((1R,3R,5S)-9-((1R,6S,8s)-bicyclo[4.3.1]decan-8-yl)-9-azabicyclo[3.3.1]nonan-3-yl)-3-oxo-3,4-dihydroquinoxalin-2-yl)-1,2,4-triazine-3,5(2H,4H)-dione]
GTPγS ORL-1 Emax [mean ± SEM] [2]: −1%

Cc1nn(-c2nc3ccccc3n([C@H]3C[C@H]4CCC[C@@H](C3)N4[C@@H]3C[C@@H]4CCCC[C@@H](C4)C3)c2=O)c(=O)[nH]c1=O [Compound O10b, 2-(4-((1R,3R,5 S)-9-((1R,6S,8s)-bicyclo[4.3.1]decan-8-yl)-9-azabicyclo[3.3.1]nonan-3-yl)-3-oxo-3,4-dihydroquinoxalin-2-yl)-6-methyl-1,2,4-triazine-3,5(2H,4H)-dione]
Ki [1]: 4.06 nM | GTPγS ORL-1 Emax [mean ± SEM] [2]: 14.3 ± 2.0% | EC50 [2]: 17.1 nM

O=c1ccn(-c2nc3ccccc3n([C@H]3C[C@H]4CCC[C@@H](C3)N4[C@@H]3C[C@@H]4CCCC[C@@H](C4)C3)c2=O)c(=O)[nH]1 [Compound O13b, 1-(4-((1R,3R,5S)-9-((1R,6S,8s)-bicyclo[4.3.1]decan-8-yl)-9-azabicyclo[3.3.1]nonan-3-yl)-3-oxo-3,4-dihydroquinoxalin-2-yl)pyrimidine-2,4(1H,3H)-dione]
GTPγS ORL-1 Emax [mean ± SEM] [2]: −1%

CC1(C)NC(=O)N(c2nc3ccccc3n([C@H]3C[C@H]4CCC[C@@H](C3)N4[C@@H]3C[C@@H]4CCCC[C@@H](C4)C3)c2=O)C1=O [Compound O22b, 3-(4-((1R,3R,5S)-9-((1R,6S,8s)-bicyclo[4.3.1]decan-8-yl)-9-azabicyclo[3.3.1]nonan-3-yl)-3-oxo-3,4-dihydroquinoxalin-2-yl)-5,5-dimethylimidazolidine-2,4-dione]
Ki [1]: 2.4 nM | GTPγS ORL-1 Emax [mean ± SEM] [2]: 23.3 ± 1.2% | EC50 [2]: 8 nM

O=C(O)Cn1cc(-c2nc3ccccc3n([C@H]3C[C@H]4CCC[C@@H](C3)N4[C@H]3C[C@@H]4CCC[C@@H](C4)C3)c2=O)ccc1=O [Compound U007, 2-(5-(4-((1R,1′R,3r,3′R,5S,5′S)-[3,9′-bi(9′-azabicyclo[3.3.1]nonan)]-3′-yl)-3-oxo-3,4-dihydroquinoxalin-2-yl)-2-oxopyridin-1(2H)-yl)acetic acid]
Ki [1]: 9.16 nM | GTPγS ORL-1 Emax [mean ± SEM] [2]: 19 ± 2% | EC50 [2]: 32 nM

Cc1cc(=O)[nH]c(=O)n1-c1nc2ccccc2n([C@H]2C[C@H]3CCC[C@@H](C2)N3[C@H]2C[C@@H]3CCC[C@@H](C3)C2)c1=O [Compound U065, 1-(4-((1R,1R,3r,3′R,5S,5′S)-[3,9′-bi(9′-azabicyclo[3.3.1]nonan)]-3′-yl)-3-oxo-3,4-dihydroquinoxalin-2-yl)-6-methylpyrimidine-2,4(1H,3H)-dione]
Ki [1]: 8.2 nM

Nc1ccn(-c2nc3ccccc3n([C@H]3C[C@H]4CCC[C@@H](C3)N4[C@@H]3C[C@@H]4CCCC[C@@H](C4)C3)c2=O)c(=O)n1 [Compound U068, 3-(4-amino-2-oxopyrimidin-1(2H)-yl)-1-((1R,3R,5S)-9-((1R,6S,8s)-bicyclo[4.3.1]decan-8-yl)-9-azabicyclo[3.3.1]nonan-3-yl)quinoxalin-2(1H)-one]
GTPγS ORL-1 Emax [mean ± SEM] [2]: −1%

O=C(O)Cn1cccc(-c2nc3ccccc3n([C@H]3C[C@H]4CC[C@@H](C3)N4[C@H]3C[C@@H]4CCC[C@@H](C4)C3)c2=O)c1=O [Q13a(iii), 2-(3-(4-((1R,3R,5S)-8-((1R,3r,5S)-bicyclo[3.3.1]nonan-3-yl)-8-azabicyclo[3.2.1]octan-3-yl)-3-oxo-3,4-dihydroquinoxalin-2-yl)-2-oxopyridin-1(2H)-yl)acetic acid]
GTPγS ORL-1 Emax [mean ± SEM] [2]: 41.7 ± 1.8%

O=c1[nH]cc(F)cc1-c1nc2ccccc2n([C@H]2C[C@H]3CCC[C@@H](C2)N3[C@H]2C[C@@H]3CCC[C@@H](C3)C2)c1=O [R16a(i), 1-((1R,1′R,3r,3′R,5S,5′S)-[3,9′-bi(9′-azabicyclo[3.3.1]nonan)]-3′-yl)-3-(5-fluoro-2-oxo-1,2-dihydropyridin-3-yl)quinoxalin-2(1H)-one]
GTPγS ORL-1 Emax [mean ± SEM] [2]: 29.3 ± 3.5%
